Measurements: article PMC10011572 (Nature Communications, 2023)

Chains of the proteins cited; added tags and fusions are not shown. Chains listed by the source or under a name are the forms on record and can include a tag or linker.
zanidatamab precursor (human), light, as listed by the source, chain 2 of 2: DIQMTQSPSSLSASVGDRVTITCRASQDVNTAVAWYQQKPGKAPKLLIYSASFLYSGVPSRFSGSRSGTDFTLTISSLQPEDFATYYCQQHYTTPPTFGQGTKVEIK

Biological target: zanidatamab precursor (human)
Test: SPR; zani precursor captured on immobilised goat anti-human Fc (CM5, Biacore T200), HER2 ECD 3.75-60 nM flowed; single-cycle, 1:1 Langmuir fit; apparent; capture/MW 1.030824782 RU/kDa

Kd: 0.578 nM
Substance: Recombinant human HER2 ECD (from UniProt P04626 23-652) (domain or fragment)
